In US20200024278A1, “COMPOSITION COMPRISING ANTIBIOTIC COMPOUND AND AN HETEROCYCLIC COMPOUND AND THEIR USE IN PREVENTING OR TREATING BACTERIAL INFECTIONS” (MUTABILIS, priority 2016, published 2020):

Key:
Assay in all cases: MIC, broth microdilution (CLSI), substance alone or ATB combined with compound at 4 or 8 μg/mL
[1] = system: ECO UFR39; type: cell-based, E. coli
[2] = system: KPN 6299; type: cell-based, K. pneumoniae
[3] = system: KPN UFR42; type: cell-based, K. pneumoniae
[4] = system: ECL P99; type: cell-based, E. cloacae
[5] = system: KPN BAA-1898; type: cell-based, K. pneumoniae
[6] = system: SAU 29213; type: cell-based, S. aureus
[7] = system: ECO 190317; type: cell-based, E. coli
[8] = system: PAE UFR48; type: cell-based, P. aeruginosa
[9] = system: PAE UFR90; type: cell-based, P. aeruginosa

CO/N=C(\C(=O)N[C@@H]1C(=O)N2C(C(=O)O)=C(COC(C)=O)CS[C@H]12)c1csc(N)n1 [CTX]
>32 µg/mL: MIC ATB alone ([1]; antibiotic alone) | MIC ATB combined with Example 1 @8 μg/ml ([1]; with Example 1 @8 μg/ml) | MIC ATB combined with Example 1 @8 μg/ml ([1]; with Example 1 at 8 μg/ml) | MIC ATB alone ([3]; antibiotic alone) | MIC ATB combined with Example 1 @8 μg/ml ([3]; with Example 1 @8 μg/ml) | MIC ATB combined with Example 1 @8 μg/ml ([3]; with Example 1 at 8 μg/ml) | MIC ATB combined with Example 9 @4 μg/ml ([3]; with Example 9 @4 μg/ml) | MIC ATB combined with Example 9 @4 μg/ml ([3]; with Example 9 at 4 μg/ml) | MIC ATB combined with Example 13 @8 μg/ml ([3]; with Example 13 at 8 μg/ml) | MIC ATB alone ([8]; antibiotic alone) | MIC ATB combined with Example 9 @4 μg/ml ([8]; with Example 9 @4 μg/ml) | MIC ATB combined with Example 9 @4 μg/ml ([8]; with Example 9 at 4 μg/ml) | MIC ATB combined with Example 13 @8 μg/ml ([8]; with Example 13 at 8 μg/ml) | MIC ATB alone ([9]; antibiotic alone) | MIC ATB combined with Example 9 @4 μg/ml ([9]; with Example 9 @4 μg/ml) | MIC ATB combined with Example 9 @4 μg/ml ([9]; with Example 9 at 4 μg/ml) | MIC ATB combined with Example 12 @8 μg/ml ([9]; with Example 12 at 8 μg/ml) | MIC ATB combined with Example 13 @8 μg/ml ([9]; with Example 13 at 8 μg/ml)
0.5 µg/mL: MIC ATB combined with Example 13 @8 μg/ml ([5]; with Example 13 at 8 μg/ml)
<0.031 µg/mL: MIC ATB combined with Example 7 @8 μgml ([1]; with Example 7 at 8 μg/ml) | MIC ATB combined with Example 9 @4 μg/ml ([1]; with Example 9 @4 μg/ml) | MIC ATB combined with Example 9 @4 μg/ml ([1]; with Example 9 at 4 μg/ml) | MIC ATB combined with Example 11 @8 μg/ml ([1]; with Example 11 at 8 μg/ml) | MIC ATB combined with Example 12 @8 μg/ml ([1]; with Example 12 at 8 μg/ml) | MIC ATB combined with Example 14 @8 μg/ml ([1]; with Example 14 at 8 μg/ml) | MIC ATB combined with Example 15 @4 μgml ([1]; with Example 15 at 4 μg/ml) | MIC ATB combined with Example 16 @4 μg/ml ([1]; with Example 16 at 4 μg/ml) | MIC ATB combined with Example 11 @8 μg/ml ([2]; with Example 11 at 8 μg/ml) | MIC ATB combined with Example 12 @8 μg/ml ([2]; with Example 12 at 8 μg/ml) | MIC ATB combined with Example 14 @8 μg/ml ([2]; with Example 14 at 8 μg/ml) | MIC ATB combined with Example 7 @8 μgml ([3]; with Example 7 at 8 μg/ml) | MIC ATB combined with Example 11 @8 μg/ml ([3]; with Example 11 at 8 μg/ml) | MIC ATB combined with Example 12 @8 μg/ml ([3]; with Example 12 at 8 μg/ml) | MIC ATB combined with Example 14 @8 μg/ml ([3]; with Example 14 at 8 μg/ml) | MIC ATB combined with Example 15 @4 μgml ([3]; with Example 15 at 4 μg/ml) | MIC ATB combined with Example 16 @4 μg/ml ([3]; with Example 16 at 4 μg/ml) | MIC ATB combined with Example 9 @4 μg/ml ([4]; with Example 9 @4 μg/ml) | MIC ATB combined with Example 9 @4 μg/ml ([4]; with Example 9 at 4 μg/ml) | MIC ATB combined with Example 11 @8 μg/ml ([4]; with Example 11 at 8 μg/ml) | MIC ATB combined with Example 12 @8 μg/ml ([4]; with Example 12 at 8 μg/ml) | MIC ATB combined with Example 14 @8 μg/ml ([4]; with Example 14 at 8 μg/ml) | MIC ATB combined with Example 16 @4 μg/ml ([4]; with Example 16 at 4 μg/ml) | MIC ATB combined with Example 9 @4 μg/ml ([5]; with Example 9 @4 μg/ml) | MIC ATB combined with Example 9 @4 μg/ml ([5]; with Example 9 at 4 μg/ml) | MIC ATB combined with Example 11 @8 μg/ml ([5]; with Example 11 at 8 μg/ml) | MIC ATB combined with Example 12 @8 μg/ml ([5]; with Example 12 at 8 μg/ml) | MIC ATB combined with Example 14 @8 μg/ml ([5]; with Example 14 at 8 μg/ml) | MIC ATB combined with Example 16 @4 μg/ml ([5]; with Example 16 at 4 μg/ml) | MIC ATB combined with Example 9 @4 μg/ml ([6]; with Example 9 @4 μg/ml) | MIC ATB combined with Example 9 @4 μg/ml ([6]; with Example 9 at 4 μg/ml) | MIC ATB combined with Example 12 @8 μg/ml ([6]; with Example 12 at 8 μg/ml) | MIC ATB combined with Example 14 @8 μg/ml ([6]; with Example 14 at 8 μg/ml) | MIC ATB combined with Example 16 @4 μg/ml ([6]; with Example 16 at 4 μg/ml) | MIC ATB combined with Example 7 @8 μgml ([7]; with Example 7 at 8 μg/ml) | MIC ATB combined with Example 9 @4 μg/ml ([7]; with Example 9 @4 μg/ml) | MIC ATB combined with Example 9 @4 μg/ml ([7]; with Example 9 at 4 μg/ml) | MIC ATB combined with Example 11 @8 μg/ml ([7]; with Example 11 at 8 μg/ml) | MIC ATB combined with Example 12 @8 μg/ml ([7]; with Example 12 at 8 μg/ml) | MIC ATB combined with Example 14 @8 μg/ml ([7]; with Example 14 at 8 μg/ml) | MIC ATB combined with Example 15 @4 μgml ([7]; with Example 15 at 4 μg/ml) | MIC ATB combined with Example 16 @4 μg/ml ([7]; with Example 16 at 4 μg/ml)
<=0.031 μg/mL: MIC ATB combined with Example 7 @8 μgml ([2]; with Example 7 at 8 μg/ml) | MIC ATB combined with Example 9 @4 μg/ml ([2]; with Example 9 @4 μg/ml) | MIC ATB combined with Example 9 @4 μg/ml ([2]; with Example 9 at 4 μg/ml) | MIC ATB combined with Example 15 @4 μgml ([2]; with Example 15 at 4 μg/ml) | MIC ATB combined with Example 16 @4 μg/ml ([2]; with Example 16 at 4 μg/ml) | MIC ATB combined with Example 7 @8 μgml ([5]; with Example 7 at 8 μg/ml) | MIC ATB combined with Example 15 @4 μgml ([5]; with Example 15 at 4 μg/ml)
0.25 µg/mL: MIC ATB combined with Example 1 @8 μg/ml ([2]; with Example 1 @8 μg/ml) | MIC ATB combined with Example 1 @8 μg/ml ([2]; with Example 1 at 8 μg/ml)
